# Literature values as cited in US20090317451A1, “PRESSURE-SENSITIVE ADHESIVE FOR SKIN SURFACE AND/OR TRANSDERMAL SUBSTANCE DELIVERY” (priority 2008, published 2009).
# Conditions: solvent(s) in which soluble; Merck 12th edition or other reference
row,Substance,Reported Solubility
1,Alendronic acid salts,Alcohol
2,Estrogen,Alcohol slight
3,Bleomycin glycopeptice,"Water, methanol"
